# Results as given in PubChem BioAssay AID1298 (SRMLSC, 2008).
# This is a selection; strong and weak results do not stand in their true shares. Activity calls are given as the source filed them.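 Rule for the calls: active = RAM network inhibition above 8.4% in each of two replicates, 3 SD over the compound average; inconclusive = above 8.4% inhibition in only one replicate; inactive = 8.4% inhibition or less in each replicate.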
# Test: RAM signaling pathway blockade in yeast – S. cerevisiae, Pdr1DBD-CYC8 efflux-inhibited sensitized strain, primary screen (AID 1298);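 note: 0% = DMSO untreated cells without growth and 100% = 10 µM 1-NA-PP1 full growth; higher means more yeast growth rescued from 5-FOA killing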
# Conditions: S. cerevisiae cbk1-as DSE1-URA3 strain, 5-FOA growth OD615, 2 d; at 50 µM; stronger effect = higher value
row,SMILES,RAM network inhibition
1,Fc1ccccc1NC1CCN(Cc2ccccc2)CC1,inactive: 2.57%
